Values of other authors in patent publication US20140141090A1, “Pharmaceutical Composition Comprising Opioid Agonist And Sequestered Antagonist” (priority 2011, published 2014).

Settings: in comparison to a 15 mg dose of hydrocodone

Which Equianalgesic dose does the source give for `CN1CC[C@]23c4c5ccc(O)c4O[C@H]2C(=O)CC[C@H]3[C@H]1C5` [hydromorphone] here?
Its Equianalgesic dose is 3.375 mg.
